Results reported in ChEMBL document CHEMBL2401730, “The macrocyclic peptide natural product CJ-15,208 is orally active and prevents reinstatement of extinguished cocaine-seeking behavior” (J Nat Prod, 2013).

System: Mus musculus
Assay: Neurotoxicity in C57BL/6J mouse assessed as sedative effect at 10 mg/kg, ip after 60 mins by rotarod test
Conditions: in vivo, 1 h

`CN(C(=O)Cc1ccc(Cl)c(Cl)c1)C1CCCCC1N1CCCC1` (stereo unspecified) was tested, and the Activity was “Toxic”.
